This test relates to LoVo cell line. In words: Intracellular ROS level (DCFH-DA), LoVo cells. The class given is cell-based. As to conditions: Homo sapiens, 4 h, compound 100 μM, without H2O2, n = 5, read-out: ROS scavenging activity, Mean E/E0 ± SD, without H2O2. As to the method: Two cell lines were chosen for investigations: V79 (Chinese hamster lung fibroblasts) and LoVo. V79 normal cells are widely used as the cell line tested in the studies of the oxidative stress. These cells are a living system model to explain the mechanism of ROS effects caused by varied compounds [73].
First, the tested compounds (in concentration of 100 μM) were added to the cell cultures and cells were incubated for 4 h. Then cells were washed and incubated with DCFH-DA (non-fluorescent probe) in dark at 37 °C for 2 h at CO2 [79]. Non-fluorescent, non-polar DCFH-DA (2′7′-dichlorodihydrofluorescein diacetate) at concentration of 25 μM was used as a marker of oxidative stress to determine the intracellular ROS levels. […] In this time, DCFH-DA which penetrated into the cells, was hydrolyzed by esterases to polar, non-fluorescent DCFH (2′7′-dichlorodihydrofluorescein) and then oxidized in the presence of ROS (reactive oxygen species) to fluorescent DCF (2′7′-dichlorofluorescein). […] Then results were presented as E/E0 where E is test sample value and E0—control value.
All results in Tables are presented as mean ± SEM (standard error of the mean) relative to the control (E/E0). E is the culture with the tested compound and E0 is the negative control without the compound. The routine statistical methods: two-way analysis of variance ANOVA as well as Tukey’s post-hoc test were used. […]

For `Cc1cnc(NC(=O)C2=C(O)c3ccccc3S(=O)(=O)N2C)s1` [Meloxicam, meloxicam, reference compound], the activity at 100 µM came to 106 ± 32%.

The values are drawn from PMC8745710, “Biological Evaluation and Molecular Docking Studies of Novel 1,3,4-Oxadiazole Derivatives of 4,6-Dimethyl-2-sulfanylpyridine-3-carboxamide” (International Journal of Molecular Sciences, 2022).
